Measurements from patent US10195297B2, “Iron garnet nanoparticles for cancer radiotherapy and chemotherapy” (priority 2014, dated 2019).

Test system: human NSCLC A549 cells
Assay: MTS cytotoxicity of neutron-activated nanoparticles and free Pt drugs (Example 2)
Type: cell-based
Conditions: 24 h

oxaliplatin
synergy with the radioactive Ho: act synergistically
